Results on 31 molecules are retold here after US20060094722A1 (Eisai Co., Ltd., priority 2002, published 2006).

Chains of the proteins cited; added tags and fusions are not shown. Lines headed by an entry give the natural chain unless they say otherwise; changes in a name come on top.
UniProt P22411: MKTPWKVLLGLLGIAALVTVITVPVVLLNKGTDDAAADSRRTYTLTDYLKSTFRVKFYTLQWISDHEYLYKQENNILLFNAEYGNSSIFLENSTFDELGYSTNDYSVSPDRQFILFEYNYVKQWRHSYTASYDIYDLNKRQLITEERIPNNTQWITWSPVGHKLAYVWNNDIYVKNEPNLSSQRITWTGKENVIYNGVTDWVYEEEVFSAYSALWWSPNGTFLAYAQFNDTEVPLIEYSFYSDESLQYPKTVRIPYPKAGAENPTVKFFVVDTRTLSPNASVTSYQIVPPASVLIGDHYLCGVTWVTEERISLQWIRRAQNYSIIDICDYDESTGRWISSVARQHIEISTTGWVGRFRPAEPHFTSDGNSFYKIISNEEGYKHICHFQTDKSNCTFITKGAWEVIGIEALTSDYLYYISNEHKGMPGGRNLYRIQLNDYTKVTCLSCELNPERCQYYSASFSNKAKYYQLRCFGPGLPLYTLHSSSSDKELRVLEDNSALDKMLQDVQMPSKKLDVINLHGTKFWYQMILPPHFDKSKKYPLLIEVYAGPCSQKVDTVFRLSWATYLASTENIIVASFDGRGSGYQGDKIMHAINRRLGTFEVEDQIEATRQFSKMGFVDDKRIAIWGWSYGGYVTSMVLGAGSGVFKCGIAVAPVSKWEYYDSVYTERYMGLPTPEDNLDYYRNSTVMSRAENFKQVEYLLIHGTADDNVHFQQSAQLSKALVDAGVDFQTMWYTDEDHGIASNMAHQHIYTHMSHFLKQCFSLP

Where a name gives a salt, the structure may show the parent alone.

The target of the first assay is T1, DPPIV obtained from swine kidney (Sus scrofa, UniProt P22411).
T1 construct: DPPIV obtained from swine kidney; from tissue; host or cells: swine kidney
The assay can be described thus: Assay for the DPPIV-inhibiting activity. Type of assay: biochemical. The following applies: DPPIV 10 mU/mL; Gly-Pro-p-nitroanilide 0.33 mM; absorbance 405 nm; read-out: IC50. As for the experimental part:
DPPIV obtained from swine kidney was dissolved in a reaction buffer (50 mM Tris-HCl (pH 7.4)/0.1% BSA) at a fmal concentration of 10 mU/mL. A 110 μL aliquot of this enzyme solution was added to the reaction system, and then 15 μL of an agent was added. The reaction solution was incubated at room temperature for 20 minutes. 25 μL of a solution containing 2 mM Gly-Pro-p-nitroanilide was added to the reaction solution (at the final concentration of 0.33 mM) to start the enzyme reaction. The reaction time was 20 minutes. 25 μL of 1N phosphate solution was added to stop the reaction. […] The degree of inhibition to the enzyme reaction was determined, and IC50 was computed based on the absorbance.
With `CC#CCn1c(N2CCNCC2)nc2nc(N(C)C)n(C)c(=O)c21` [Example 29, 7-(2-Butynyl)-1-methyl-2-dimethylamino-8-(piperazin-1-yl)-1,7-dihydropurin-6-one trifluoroacetate], the IC50 – broadly, the concentration that inhibits the measured activity by half – came out at 310 nM.
With `CC#CCn1c(N2CCNCC2)nc2cnn(CC(=O)c3cccc(OC)c3)c(=O)c21` [Example 266, 3-(2-Butynyl)-5-[2-(3-methoxyphenyl)-2-oxoethyl]-2-(piperazin-1-yl)-3,5-dihydroimidazo[4,5-d]pyridazin4-one trifluoroacetate], the IC50 is 1.15 nM.
On the same count and under the same terms, then `CC#CCn1c(N2CCNCC2)nc2nc(Oc3ccccc3C(N)=O)n(Cc3ccccc3C#N)c(=O)c21` [Example 234, 2-[7-(2-Butynyl)-1-(2-cyanobenzyl)-6-oxo-8-(piperazin-1-yl)-6,7-dihydro-1H-purin-2-yloxy]benzamide trifluoroacetate], with 1.74 nM.
On the same count and under the same terms, to `CC#CCn1c(N2CCNCC2)nc2nc(SC(C)C)n(C)c(=O)c21` [Example 76, 7-(2-Butynyl)-2-isopropylsulfanyl-1-methyl-8-(piperazin-1-yl)-1,7-dihydropurin-6-one trifluoroacetate] belongs 86.5 nM; to `CC#CCn1c(N2CCNCC2)nc2nc(OC3CCCC3)n(C)c(=O)c21` [Example 7, 7-(2-Butynyl)-2-cyclopentyloxy-1-methyl-8-(piperazin-1-yl)-1,7-dihydropurin-6-one trifluoroacetate], 401 nM; to `CC#CCn1c(N2CCNCC2)nc2cnn(Cc3c(F)cccc3C#N)c(=O)c21` [Example 297, 2-[3-(2-Butynyl)-4-oxo-2-(piperazin-1-yl)-3,4-dihydroimidazo[4,5-d]pyridazin-5-ylmethyl]-3-fluorobenzonitrile trifluoroacetate], 6.22 nM.
Take `CC#CCn1c(N2CCCC(N)C2)nc2cnn(C)c(=O)c21.O=C(O)C(F)(F)F` (stereo not shown) [Example 120, 2-(3-Aminopiperidin-1-yl)-3-(2-butynyl)-5-methyl-3,5-dihydroimidazo[4,5-d]pyridazin-4-one trifluoroacetate]: the IC50 was determined as 116 nM.
Consider `CC#CCn1c(N2CCNCC2)nc2nc(Sc3nccs3)n(C)c(=O)c21` [Example 142, 7-(2-Butynyl)-1-methyl-8-(piperazin-1-yl)-2-(thiazol-2-ylsulfanyl)-1,7-dihydropurin-6-one trifluoroacetate], for which the IC50 was found to be 68.5 nM.
`CC#CCn1c(N2CCNCC2)nc2nc(Oc3ccccc3)n(C)c(=O)c21` [Example 20, 7-(2-Butynyl)-1-methyl-2-phenoxy-8-(piperazin-1-yl)-1,7-dihydropurin-6-one trifluoroacetate]: the IC50 came to 152 nM.
For the molecule `CC#CCn1c(N2CCNCC2)nc2c1c(=O)n(CCc1ccccc1)c(=O)n2CC(=O)O` [Example 417, [7-(2-Butynyl)-2,6-dioxo-1-(2-phenethyl)-8-(piperazin-1-yl)-1,2,6,7-tetrahydropurin-3-yl]acetic acid hydrochloride], the IC50 came out at 0.864 nM.
Take `CC#CCn1c(N2CCNCC2)nc2cnn(Cc3ccccc3C#N)c(=O)c21.O=C(O)C(F)(F)F` [Example 267, 2-[3-(2-Butynyl)-4-oxo-2-(piperazin-1-yl)-3,4-dihydroimidazo[4,5-d]pyridazin-5-ylmethyl]benzonitrile trifluoroacetate]: the IC50 was found to be 7.22 nM.
Still for that read-out and setting: to `COc1ccccc1-n1c(N2CCNCC2)nc2c1c(=O)n(CC(=O)c1ccccc1)c(=O)n2C` [Example 382, 7-(2-Methoxyphenyl)-3-methyl-1-(2-oxo-2-phenylethyl)-8-(piperazin-1-yl)-3,7-dihydropurine-2,6-dione trifluoroacetate] belongs 6.97 nM; to `CC#CCn1c(N2CCNCC2)nc2nc(SC(C)c3cccs3)n(C)c(=O)c21` (stereo not shown) [Example 146, 7-(2-Butynyl)-1-methyl-8-(piperazin-1-yl)-2-[1-(thiophen-2-yl)ethylsulfanyl]-1,7-dihydropurin-6-one trifluoroacetate], 81.7 nM; to `CC#CCn1c(N2CCNCC2)nc2nc(NC(C)C(=O)O)n(C)c(=O)c21` (stereo not shown) [Example 64, 2-[7-(2-Butynyl)-1-methyl-6-oxo-8-(piperazin-1-yl)-6,7-dihydro-1H-purin-2-ylamino]propionic acid trifluoroacetate], 126 nM.
For `CC#CCn1c(N2CCNCC2)nc2nc(N3CCC[C@H]3C(=O)O)n(C)c(=O)c21` [Example 53, (S)-1-[7-(2-Butynyl)-1-methyl-6-oxo-8-(piperazin-1-yl)-6,7-dihydro-1H-purin-2-yl]pyrrolidine-2-carboxylic acid trifluoroacetate], the IC50 amounted to 46.9 nM.
Regarding `CC#CCn1c(N2CCNCC2)nc2nc(Sc3ccccn3)n(C)c(=O)c21` [Example 73, 7-(2-Butynyl)-1-methyl-8-(piperazin-1-yl)-2-(pyridin-2-ylsulfanyl)-1,7-dihydropurin-6-one trifluoroacetate], the IC50 was found to be 33.4 nM.
Still for that read-out and setting: then `O=C(O)Cn1c(=O)n(CCc2ccccc2)c(=O)c2c1nc(N1CCNCC1)n2-c1ccccc1Cl` [Example 393, [7-(2-Chlorophenyl)-2,6-dioxo-1-phenethyl-8-(piperazin-1-yl)-1,2,6,7-tetrahydropurin-3-yl]acetic acid trifluoroacetate], with 1.2 nM.
As for `NC(=O)Cn1c(=O)n(CCc2ccccc2)c(=O)c2c1nc(N1CCNCC1)n2-c1ccccc1Cl` [Example 394, 2-[7-(2-Chlorophenyl)-2,6-dioxo-1-phenethyl-8-(piperazin-1-yl)-1,2,6,7-tetrahydropurin-3-yl]acetamide trifluoroacetate], the IC50 was 2.16 nM.
Still for that read-out and setting: then `CC#CCn1c(N2CCCC(N)C2)nc2nc(Oc3ccccc3C(N)=O)n(C)c(=O)c21` (stereo not shown) [Example 248, 2-[8-(3-Aminopiperidin-1-yl)-7-(2-butynyl)-1-methyl-6-oxo-6,7-dihydro-1H-purin-2-yloxy]benzamide trifluoroacetate], with 6.4 nM.
As for `COc1ccccc1-n1c(N2CCNCC2)nc2c1c(=O)n(CCc1ccccc1)c(=O)n2C` [Example 383, 7-(2-Methoxyphenyl)-3-methyl-1-(2-phenylethyl)-8-(piperazin-1-yl)-3,7-dihydropurine-2,6-dione trifluoroacetate], the IC50 turned out to be 7.18 nM.
Turning to `CC#CCn1c(N2CCNCC2)nc2nc(Sc3nc(C)cs3)n(C)c(=O)c21` [Example 159, 7-(2-Butynyl)-1-methyl-2-(4-methylthiazol-2-ylsulfanyl)-8-(piperazin-1-yl)-1,7-dihydropurin-6-one trifluoroacetate], the IC50 is 37.7 nM.
On to `CC#CCn1c(N2CCNCC2)nc2nc(C)n(C)c(=O)c21` [Example 22, 7-(2-Butynyl)-1,2-dimethyl-8-(piperazin-1-yl)-1,7-dihydropurin-6-one trifluoroacetate], for which the IC50 was 17 nM.
Same read-out and setting: then `CCOC(=O)COc1nc2nc(N3CCNCC3)n(-c3ccccc3Cl)c2c(=O)n1C` [Example 1, Ethyl[7-(2-chlorophenyl)-1-methyl-6-oxo-8-(piperazin-1-yl)-6,7-dihydro-1H-purin-2-yloxy]acetate trifluoroacetate], with 287 nM; and `CC#CCn1c(N2CCNCC2)nc2nc(C#N)n(C)c(=O)c21.O=C(O)C(F)(F)F` [Example 82, 7-(2-Butynyl)-2-cyano-1-methyl-8-(piperazin-1-yl)-1,7-dihydropurin-6-one trifluoroacetate], with 161 nM; and `CC#CCn1c(N2CCNCC2)nc2nc(Oc3cccnc3C(N)=O)n(Cc3ccccc3C#N)c(=O)c21` [Example 230, 3-[7-(2-Butynyl)-1-(2-cyanobenzyl)-6-oxo-8-(piperazin-1-yl)-6,7-dihydro-1H-purine-2-yloxy]pyridine-2-carboxylic amide trifluoroacetate], with 0.89 nM.
Turning to `CC#CCn1c(N2CCNCC2)nc2c1c(=O)n(Cc1ccccc1C#N)c(=O)n2C` [Example 364, 2-[7-(2-Butynyl)-3-methyl-2,6-dioxo-8-(piperazin-1-yl)-2,3,6,7-tetrahydropurin-1-ylmethyl]benzonitrile trifluoroacetate], the IC50 worked out at 9.48 nM.
Same read-out and setting: to `Cn1c(=O)n(CC(=O)c2ccccc2)c(=O)c2c1nc(N1CCNCC1)n2-c1ccccc1Cl` [Example 378, 7-(2-Chlorophenyl)-3-methyl-1-(2-oxo-2-phenylethyl)-8-(piperazin-1-yl)-3,7-dihydropurine-2,6-dione trifluoroacetate] belongs 9.52 nM.

The assay is the same for the next values; noted with them: IC50 (nM), DPPIV 10 mU/mL; Gly-Pro-p-nitroanilide 0.33 mM; absorbance 405 nm.
Consider `CC#CCn1c(N2CCCC(N)C2)nc2nc(OC)n(Cc3ccccc3C#N)c(=O)c21` (stereo not shown) [Example 243, 2-[8-(3-Aminopiperidin-1-yl)-7-(2-butynyl)-2-methoxy-6-oxo-6,7-dihydropurin-1-ylmethyl]benzonitrile hydrochloride], for which the IC50 was determined as 2.15 nM.
Still for that read-out and setting: to `CC#CCn1c(N2CCNCC2)nc2nc(C#N)n(Cc3ccccc3C#N)c(=O)c21.Cl` [Example 229, 7-(2-Butynyl)-1-(2-cyanobenzyl)-6-oxo-8-(piperazin-1-yl)-6,7-dihydro-1H-purine-2-carbonitrile hydrochloride] belongs 8.97 nM; to `CC#CCn1c(N2CCNCC2)nc2nc(OC)n(Cc3ccccc3C#N)c(=O)c21` [Example 98, 2-[7-(2-Butynyl)-2-methoxy-6-oxo-8-(piperazin-1-yl)-6,7-dihydropurin-1-ylmethyl]benzonitrile hydrochloride], 9.69 nM.
On to `CC#CCn1c(N2CCNCC2)nc2nc(OC)n(CCc3ccccc3)c(=O)c21` [Example 86, 7-(2-Butynyl)-2-methoxy-1-(2-phenylethyl)-8-(piperazin-1-yl)-1,7-dihydropurin-6-one hydrochloride], for which it took 4.08 nM to reach half-maximal inhibition (IC50).
